The values that follow come from US11759509B2, “WT1 antigen peptide conjugate vaccine” (Sumitomo Pharma Co., Ltd., priority 2013, dated 2023).

Chains of the proteins cited; added tags and fusions are not shown. Lines headed by an entry give the natural chain unless they say otherwise; changes in a name come on top.
UniProt Q9NZ08: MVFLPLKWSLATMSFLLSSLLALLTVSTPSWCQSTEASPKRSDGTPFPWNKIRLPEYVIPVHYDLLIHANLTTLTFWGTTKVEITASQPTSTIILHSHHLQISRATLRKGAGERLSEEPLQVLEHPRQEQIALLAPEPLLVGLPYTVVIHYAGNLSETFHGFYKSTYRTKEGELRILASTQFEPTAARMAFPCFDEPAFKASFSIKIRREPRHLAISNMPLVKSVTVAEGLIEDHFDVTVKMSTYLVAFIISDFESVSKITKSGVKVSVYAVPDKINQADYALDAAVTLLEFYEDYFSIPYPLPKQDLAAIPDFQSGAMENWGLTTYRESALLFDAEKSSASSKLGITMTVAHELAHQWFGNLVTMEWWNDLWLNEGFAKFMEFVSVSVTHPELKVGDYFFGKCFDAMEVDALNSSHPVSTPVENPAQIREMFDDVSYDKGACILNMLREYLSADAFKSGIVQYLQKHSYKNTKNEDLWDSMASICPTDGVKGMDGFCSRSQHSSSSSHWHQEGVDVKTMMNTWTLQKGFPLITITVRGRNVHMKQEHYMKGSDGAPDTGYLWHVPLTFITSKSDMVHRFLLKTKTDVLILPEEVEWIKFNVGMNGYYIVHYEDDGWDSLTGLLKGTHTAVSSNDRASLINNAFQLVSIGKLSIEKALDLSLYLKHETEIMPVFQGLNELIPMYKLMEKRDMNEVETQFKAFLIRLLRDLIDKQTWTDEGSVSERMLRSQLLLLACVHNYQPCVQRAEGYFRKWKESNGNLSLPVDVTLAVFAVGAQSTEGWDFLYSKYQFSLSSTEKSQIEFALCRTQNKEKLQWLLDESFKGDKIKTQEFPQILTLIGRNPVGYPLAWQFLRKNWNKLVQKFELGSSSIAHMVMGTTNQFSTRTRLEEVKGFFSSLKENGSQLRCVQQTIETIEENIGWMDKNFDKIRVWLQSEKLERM

The assay deals with ERAP1 (Homo sapiens, UniProt Q9NZ08). Briefly: Time-course changes of trimming of N-terminal amino acid by ERAP1. Format: biochemical. To be noted: room temperature. As to the method:
Time-Course Changes of Trimming of N-Terminal Amino Acid by ERAP1
The peptides of SEQ ID NOs: 13, 16, 18 and 17 synthesized in Examples 2-5 were evaluated for the trimming of the N-terminal amino acid by ERAP1 (PLoS One November 2008, vol. 3, Issue 11, e3658).
30 μl of ERAP1 (2.0 mg/ml) in PBS buffer solution was added to 258 μl of Tris·HCl buffer. DMSO solution (12.0 μl) of 10 mM each peptide was added to the aforementioned ERAP1 solution, and the mixture was blended well and stood at room temperature. 1.0, 2.0, 4.0, 8.0 hr later, 50 μl of a sample was added to 150 μl of MeOH to terminate the reaction, 25 μl was injected into UFLC (analysis conditions shown below), and AUC of the object peptide was determined. Peptide obtained by trimming was chemically synthesized separately, and analyzed under similar conditions free of enzyme. The formation ratio of peptide obtained by trimming was determined based on the obtained AUC. • analysis conditions • pump: UFLC manufactured by Shimadzu • column: Shim-pack XR-ODS 3.0 mmi.d.×75 mm • solution: 0.1% TFA H2O(A)-0.1% TFA CH3CN(B) • oven temperature: 40° C. • flow rate: 1.0 ml/min • detection wavelength: λ=220 nm • gradient: • 1. Concentration of SOLUTION B was raised from 1.0% to 70% from 0.0 min to 5.0 min • 2. Concentration of SOLUTION B was raised from 1.0% to 50% from 0.0 min to 5.0 min • object peptide:
As for the peptides synthesized in Examples 2-5, the amino acid sequences of the peptides obtained by trimming of N-terminal amino acid by ERAP1 are shown in Table 55.

On to `CSCC[C@H](NC(=O)[C@H](CCCNC(=N)N)NC(=O)[C@@H](N)CS)C(=O)N[C@@H](Cc1ccccc1)C(=O)N1CCC[C@H]1C(=O)N[C@@H](CC(N)=O)C(=O)N[C@@H](C)C(=O)N1CCC[C@H]1C(=O)N[C@@H](Cc1ccc(O)cc1)C(=O)N[C@@H](CC(C)C)C(=O)O` [Example 2, CRMFPNAPYL], for which, where the note is “1 hr later”, the “formation rate (%) of the peptide obtained by trimming, 1 hr later” value is listed as 25.5%. Also, where the note is “2 hr later”, the “formation rate (%) of the peptide obtained by trimming, 2 hr later” value came to 35.2%. The “formation rate (%) of the peptide obtained by trimming, 4 hr later” value (4 hr later) worked out at 46.2%. Further, the “formation rate (%) of the peptide obtained by trimming, 8 hr later” value (8 hr later) is on record as 47.6%.
